# AlphaSeq binding of Ab-14 light chain variants to a spike HR2 peptide

The measurements come from Li et al. 2023 (doi:10.1038/s41467-023-39022-2) through the FLAb antibody collection.

Target peptide (SARS-CoV-2 spike, HR2 region): PDVDLGDISGINAS

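The starting antibody came from a phage panning campaign against this peptide. The variants were designed computationally from a first round of random CDR variants and then made and measured. Their group label is 14L_GP_HC (GP: Gaussian process model; HC: hill climbing; a sequence that several methods proposed may carry one label only). Affinity was read by AlphaSeq, a pooled yeast mating assay with surface-displayed partners. After mating in shaken culture at 30 °C for 16 h, diploids were selected and their barcode pairs sequenced. A regression on co-assayed BCL2-family reference pairs converts the normalised counts of each replicate to an apparent Kd. Mating was done six times.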

The variants keep the heavy chain, the linker and the frameworks of Ab-14 (scFv order VH, three GGGGS repeats, VL).
VH: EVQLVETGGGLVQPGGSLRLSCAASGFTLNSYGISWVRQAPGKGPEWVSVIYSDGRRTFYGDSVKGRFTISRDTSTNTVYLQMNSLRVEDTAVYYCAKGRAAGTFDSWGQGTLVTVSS
VL: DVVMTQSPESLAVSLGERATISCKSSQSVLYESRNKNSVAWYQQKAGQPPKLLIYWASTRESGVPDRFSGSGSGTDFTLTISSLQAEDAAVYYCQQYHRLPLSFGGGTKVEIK

Substitutions are numbered in sequence along the VL above, starting at 1 (not Kabat).
Values are log10 of the apparent Kd in nM; lower means stronger binding.
Replicates are averaged; those with no signal do not enter the mean.
Where no diploid with the target was found in that replicate, the entry reads "n.d.": below detection, most likely a poor binder, though not proof of it.
Nonspecific signal, from three strains lacking the peptide, appeared in 4% of pairings of all light chain designs, centred on 2.64 (5% of these signals below 1.59); values are not corrected for it. Also given: how often the same scFv was detected with the empty control strains, with their mean in brackets.

changes	replicates, log10 nM	mean log10 Kd (nM)	empty controls
S25Q/Y31M/K36C/W56D	0.67 / 0.17 / 0.51 / 0.47 / 0.53 / 0.51	0.48	0/18
S25A/S26V/V29W/L30N/W56G/S103I	0.30 / 0.76 / 0.65 / 0.68 / -0.03 / 0.45	0.47	1/18 (2.71)
S25T/S28G/W56G/T59V	-0.03 / -0.07 / -0.30 / -0.20 / -0.12 / 0.05	-0.11	3/18 (2.59)
Q27W/V29M/R34G/W56H/S62D	0.23 / n.d. / 1.05 / 2.05 / -0.02 / 0.84	0.83	0/18
S25L/Y31M/K36A/W56D	0.03 / -0.26 / -0.24 / -0.21 / -0.28 / -0.07	-0.17	2/18 (3.96)
S26L/N35D/S38A/W56H/S62D	0.37 / 0.27 / 0.33 / 0.17 / 0.21 / 0.33	0.28	0/18
Q27I/V29Y/K36F/W56E	0.45 / 0.48 / 0.70 / 0.52 / 0.50 / 0.81	0.58	0/18
S26P/S28G/W56G/T59L	-0.19 / -0.18 / -0.13 / -0.26 / 0.05 / -0.01	-0.12	1/18 (2.31)
S25Y/V29F/W56G/Q96N	-0.06 / -0.12 / 0.02 / 0.00 / 0.14 / 0.08	0.01	3/18 (3.44)
S25L/V29E/W56D/Q95Y/L102S	n.d. / n.d. / n.d. / 2.26 / 2.19 / 2.98	2.48	0/18
Q27E/V29Y/W56A/S62V	0.48 / n.d. / 1.54 / 0.73 / 0.90 / 0.47	0.83	0/18
Q27I/V29Y/E32G/W56E/S103M	0.61 / 0.23 / 0.42 / 0.31 / 0.15 / 0.53	0.38	1/18 (2.57)
K24H/S25L/Q27D/W56N/S103T	0.34 / 0.32 / -0.02 / 0.37 / -0.10 / 0.10	0.17	0/18
S25F/S28K/S33H/N35V/W56N	0.55 / 0.33 / 0.33 / 0.35 / 0.53 / 0.47	0.43	1/18 (2.91)
K24H/Q27P/L30D/W56N/S62E/Q96D	0.28 / 0.18 / 0.12 / 0.06 / -0.01 / 0.27	0.15	1/18 (3.49)
Q27I/V29Y/Y31I/W56E/S62V	-0.10 / -0.31 / -0.11 / -0.03 / -0.14 / 0.20	-0.08	1/18 (1.61)
S25Q/Q27P/S28E/V29K/W56D	-0.09 / 0.08 / -0.27 / -0.30 / -0.04 / -0.01	-0.11	1/18 (2.85)
Q27W/V29W/W56G/T59A/S62V	0.12 / -0.17 / -0.31 / -0.21 / -0.12 / 0.15	-0.09	1/18 (3.11)
S25V/Y31M/W56E/E61Q	-0.05 / -0.18 / -0.16 / -0.36 / -0.36 / -0.15	-0.21	0/18
S28G/V29W/W56N/S62D	-0.39 / -0.41 / -0.51 / -0.61 / -0.66 / -0.53	-0.52	1/18 (1.83)
S28G/V29W/W56G/S62D	-0.29 / -0.37 / -0.31 / -0.36 / -0.41 / -0.48	-0.37	1/18 (1.82)
S26G/Q27P/S28G/W56G/A57G	0.48 / 0.47 / 0.15 / -0.07 / 0.09 / 0.12	0.21	2/18 (2.18)
Q27G/V29F/W56G	0.03 / 0.33 / 0.80 / 0.30 / 0.17 / 0.27	0.32	0/18
S26L/V29T/W56H/S62D/R99Q	0.03 / -0.01 / -0.22 / -0.34 / -0.26 / -0.09	-0.15	1/18 (2.51)
S25V/W56N/S62G	-0.12 / -0.26 / -0.10 / -0.52 / -0.23 / -0.15	-0.23	0/18
S25L/S26D/S28G/V29W/W56G	-0.12 / -0.24 / -0.31 / -0.36 / -0.38 / -0.21	-0.27	5/18 (3.64)
L30D/Y31N/W56D/L100M	-0.03 / 0.09 / 0.44 / -0.12 / 0.43 / 0.56	0.23	0/18
S25F/N35T/W56N/R99Q	0.63 / 0.36 / 0.35 / 0.57 / 0.60 / 0.42	0.49	0/18
L30D/Y31F/W56E	0.77 / 0.29 / 0.27 / 0.44 / 0.43 / 0.58	0.46	2/18 (2.76)
S25V/L30V/S33G/W56H/S62D	0.29 / 0.31 / 0.04 / 0.02 / 0.11 / -0.13	0.11	1/18 (2.52)
K24H/Q27P/W56N/S62Q/S103Q	n.d. / n.d. / n.d. / n.d. / n.d. / n.d.	n.d.	0/18
S25F/S26Q/S28K/S33G/N35T/W56N	0.36 / 0.45 / 0.27 / 0.28 / 0.41 / 0.59	0.39	1/18 (2.43)
S25E/Y31H/S33W/W56D	-0.17 / -0.14 / -0.14 / -0.24 / 0.01 / -0.11	-0.13	0/18
K24S/S25L/S26M/W56H/T59L	-0.17 / 0.58 / 0.82 / -0.18 / -0.13 / -0.02	0.15	0/18
S25I/S26L/V29Q/L30E/W56H/S62D/R99C	1.35 / 1.47 / 1.36 / 1.42 / 1.41 / 1.77	1.46	2/18 (2.62)

For reference, 5 entries of the list once more:

changes	replicates, log10 nM	mean log10 Kd (nM)	empty controls
S25Q/Y31M/K36C/W56D	0.67 / 0.17 / 0.51 / 0.47 / 0.53 / 0.51	0.48	0/18
S26G/Q27P/S28G/W56G/A57G	0.48 / 0.47 / 0.15 / -0.07 / 0.09 / 0.12	0.21	2/18 (2.18)
L30D/Y31N/W56D/L100M	-0.03 / 0.09 / 0.44 / -0.12 / 0.43 / 0.56	0.23	0/18
Q27W/V29M/R34G/W56H/S62D	0.23 / n.d. / 1.05 / 2.05 / -0.02 / 0.84	0.83	0/18
Q27I/V29Y/Y31I/W56E/S62V	-0.10 / -0.31 / -0.11 / -0.03 / -0.14 / 0.20	-0.08	1/18 (1.61)

The parent sequence was in this pool as ten entries: three were never detected, three once, and four in most replicates, with averages from 0.34 to 2.37.
The range of this assay differs from that of the first round, and the authors advise against merging the two.
The authors averaged sequences with at least three values out of six and counted those with two or fewer as poor binders.